The results in this text go back to patent US20060062747A1, “Use of sweetener acids for the microbiological stabilization of foodstuffs, cosmetic products, consumer goods and pharmaceutical productions” (Nutrinova Nutrition Specialties & Food Ingredients GmbH, priority 2002, published 2006).

The data set is described as follows: pH of the test solutions and drinks. The conditions noted are these: Example 2; identical acid taste solutions (Table 5).

With `O=S(=O)(O)NC1CCCCC1` [Cyclamic acid, N-cyclohexylsulfaminic acid], the pH was found to be 3.08.
